Test results from publication PMC7826266.

Molecular target: human insulin receptor overexpressed in Rat-1 cells (human) (UniProt P06213)
Test: flow cytometry on cells

shift of peak fluorescent intensity (100 nM FITC-insulin alone): 16.7%
shift of peak fluorescent intensity (100 nM FITC-insulin with 10 nM IR-A43): 20.5%
shift of peak fluorescent intensity (100 nM FITC-insulin with 50 nM IR-A43): 38.3%
shift of peak fluorescent intensity (100 nM FITC-insulin with 250 nM IR-A43): 66.6%
Substance: FITC-labeled insulin (ligand)
